Experimental data published in patent EP2330125A2 (priority 2005, dated 2007).
Read-outs that look alike come from different tables or passages of the source.

Chains of the proteins cited; added tags and fusions are not shown. Residues count along the entry.
UniProt P49146, whole entry: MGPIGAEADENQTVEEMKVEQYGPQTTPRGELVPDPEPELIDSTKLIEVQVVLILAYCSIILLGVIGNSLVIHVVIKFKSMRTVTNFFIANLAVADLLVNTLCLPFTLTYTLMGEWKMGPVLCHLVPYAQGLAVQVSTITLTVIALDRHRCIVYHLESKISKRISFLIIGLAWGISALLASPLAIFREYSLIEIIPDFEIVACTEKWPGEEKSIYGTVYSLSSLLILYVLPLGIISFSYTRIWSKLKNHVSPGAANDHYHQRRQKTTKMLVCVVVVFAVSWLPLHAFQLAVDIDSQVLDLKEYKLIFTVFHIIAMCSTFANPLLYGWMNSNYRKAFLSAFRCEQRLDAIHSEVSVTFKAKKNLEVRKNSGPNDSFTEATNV
UniProt O60894, 27-148 partner: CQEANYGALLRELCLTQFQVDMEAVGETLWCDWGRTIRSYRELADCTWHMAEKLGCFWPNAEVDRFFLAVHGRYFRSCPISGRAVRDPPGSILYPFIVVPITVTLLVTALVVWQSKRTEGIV
UniProt Q16602, 23-461: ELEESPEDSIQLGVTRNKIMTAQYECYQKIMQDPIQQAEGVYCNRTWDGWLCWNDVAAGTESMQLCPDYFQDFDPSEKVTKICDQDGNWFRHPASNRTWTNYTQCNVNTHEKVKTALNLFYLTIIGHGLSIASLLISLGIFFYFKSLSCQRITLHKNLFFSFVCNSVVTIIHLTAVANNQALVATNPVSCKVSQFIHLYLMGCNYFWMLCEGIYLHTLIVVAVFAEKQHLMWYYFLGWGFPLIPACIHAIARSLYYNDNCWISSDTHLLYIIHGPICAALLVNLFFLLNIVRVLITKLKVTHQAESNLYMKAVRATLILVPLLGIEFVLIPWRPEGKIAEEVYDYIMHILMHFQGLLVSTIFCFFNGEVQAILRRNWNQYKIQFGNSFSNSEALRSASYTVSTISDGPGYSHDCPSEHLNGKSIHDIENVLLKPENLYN

Assays:
[1] = target: T1, neuropeptide Y2 receptors (Homo sapiens, UniProt P49146); details: read-out: Receptor Binding Y2
T1 construct: SK-N-BE cells that endogenously expresses the neuropeptide Y2 receptors; endogenous in cells; host or cells: SK-N-BE cell membranes

[2] = target: T2, CT receptor (Rattus norvegicus, UniProt P32214); format: cell-based; details: read-out: Receptor Activation CT cyclase
T2 construct: host or cells: 'C1A' (not explained)
T2 sequence (P32214 25-479 isoform P32214-2 limits assumed): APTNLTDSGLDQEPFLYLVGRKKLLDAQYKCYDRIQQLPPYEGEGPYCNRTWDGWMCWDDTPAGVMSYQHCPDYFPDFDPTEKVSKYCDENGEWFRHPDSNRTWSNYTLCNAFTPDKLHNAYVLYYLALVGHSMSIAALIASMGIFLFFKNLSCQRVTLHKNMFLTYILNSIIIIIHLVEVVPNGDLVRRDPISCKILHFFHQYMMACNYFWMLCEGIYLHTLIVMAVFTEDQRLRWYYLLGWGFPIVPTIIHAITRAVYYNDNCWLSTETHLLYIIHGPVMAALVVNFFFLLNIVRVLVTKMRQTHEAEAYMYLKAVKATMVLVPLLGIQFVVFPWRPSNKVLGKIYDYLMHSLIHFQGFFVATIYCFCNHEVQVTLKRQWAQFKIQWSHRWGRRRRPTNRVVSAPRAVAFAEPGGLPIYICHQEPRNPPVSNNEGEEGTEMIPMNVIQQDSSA

[3] = target: T3, CGRP receptors (Homo sapiens, UniProt O60894+Q16602); format: binding
T3 construct: SK-N-MC and L6 cells expressing endogenous CGRP receptors; endogenous in cells; host or cells: SK-N-MC cell membranes

[4] = target: T4, GLP-1 receptor (Rattus norvegicus, UniProt P32301); format: binding
T4 construct: the receptor source is RINm5F cell membranes; endogenous in cells; host or cells: RINm5F cell membranes
T4 sequence (P32301 22-463): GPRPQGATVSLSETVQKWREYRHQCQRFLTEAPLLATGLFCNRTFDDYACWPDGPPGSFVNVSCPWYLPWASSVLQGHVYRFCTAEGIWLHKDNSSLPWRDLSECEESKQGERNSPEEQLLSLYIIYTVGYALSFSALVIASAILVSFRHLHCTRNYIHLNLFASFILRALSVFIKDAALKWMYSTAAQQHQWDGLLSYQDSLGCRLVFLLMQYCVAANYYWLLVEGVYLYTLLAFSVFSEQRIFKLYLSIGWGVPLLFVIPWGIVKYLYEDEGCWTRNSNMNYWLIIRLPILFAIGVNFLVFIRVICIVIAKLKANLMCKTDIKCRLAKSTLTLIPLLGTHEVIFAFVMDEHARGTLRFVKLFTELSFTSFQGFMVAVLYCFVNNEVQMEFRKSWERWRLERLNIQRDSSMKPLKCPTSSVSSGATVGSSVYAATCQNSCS

[5] = target: calcitonin receptor; details: read-out: Receptor Binding Assay CT
[6] = in vivo; cited from earlier work

Which results are given for “KCNTATCATQRLANFLVRSSNNLGPVLPPTNVGSNTY [rat amylin]”?
IC50 [1]: > 1000 nM; EC50 [2]: 326 nM; IC50 ([3]; read-out: Receptor Binding CGRP): 21 nM; IC50 ([4]; read-out: Receptor Binding GLP-1): > 1000 nM

For “^29GlyGlyGly-Exendin(1-28),hAmylin(1-7)-^11,18Arg-sCt(8-27)-hAmylin(33-37) [Compound 15]”, which IC50 [5] is on record?
Its IC50 is 0.03 nM.

And the IC50 ([3]; read-out: Receptor Binding Assay CGRP)?
Its IC50 is 63 nM.

Which metabolic clearance rate [6] does the source give for glucagon-like peptide-1 [GLP-1] here?
Its metabolic clearance rate is 12 to 13 min.

What about the “plasma half-life of active GLP-1” value [6] of the same substance?
The value was under 5 min.

With “[Ser117, dLeu119]leptin(116-122)-Amylin(1-7)-[^11,18Arg]sCT(8-27)-Amylin(33-37) [Compound 16]” as the substance, how does the IC50 ([4]; read-out: IC50, GLP RBA (RIN)) read?
The IC50 was 1000 nM.

Which IC50 ([3]; read-out: IC50 in a CGRP receptor binding assay) does the source give for “DF(P-CH2SO3)MGWNMFGKR KCNTATCATQRLANELVRLQTYPRTNVGSNTY [SEQ ID NO: 398]” here?
The IC50 was 4.4 nM.
